Measurements: ChEMBL document CHEMBL5518211, “Design, Synthesis, and Antitumor Activity Evaluation of Novel VISTA Small Molecule Inhibitors” (J Med Chem, 2024)

Protein sequences, listed by entry. Tags and fused reporters are not part of them.
UniProt Q9NZQ7, whole entry: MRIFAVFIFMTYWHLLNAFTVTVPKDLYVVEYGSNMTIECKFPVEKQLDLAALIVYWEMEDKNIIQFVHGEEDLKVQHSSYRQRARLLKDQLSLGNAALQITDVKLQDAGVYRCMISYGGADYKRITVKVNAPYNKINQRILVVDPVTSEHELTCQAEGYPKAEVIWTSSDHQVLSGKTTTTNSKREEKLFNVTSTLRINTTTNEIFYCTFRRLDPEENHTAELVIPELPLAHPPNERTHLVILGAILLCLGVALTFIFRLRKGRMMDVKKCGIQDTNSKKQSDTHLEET

Biological target: Programmed cell death 1 ligand 1 (Homo sapiens) (UniProt Q9NZQ7)
Test: Binding affinity to human PD-L1 by MST assay

COc1cc(CNCCO)nc(Nc2cccc(O)c2)n1 was tested, and the Activity was “inactive”.

Activity calls are given as the source filed them. The calls are words filed in the database; no cut-off is given here.
